Test system: 8-month-old 5XFAD mouse brain cortex
Settings: 8-month-old 5XFAD cortex, 0.1 mg/kg/day
Experimental: Age-matched wild-type (WT) mice were orally administered vehicle for 2.5 months. Blood was obtained from all the mice at the age of 8 months after completion of the treatment and collected in EDTA tubes, which were centrifuged to obtain plasma. Mice were sacrificed by the perfusion method, and the brain cortex was extracted and immediately frozen.
Single-cell RNA sequencing analysis was performed on the 8-month-old 5XFAD mouse and wild type mouse brain cortex samples. The cortex was microdissected in HABG (Hibernate A buffer including B27 supplement and glutamine) media and digested in papain solution for 20 min at 37° C. (Brewer et al (2007). Isolation and culture of adult neurons and neurospheres. Nat Protoc 2, 1490-1498). Using a Pasteur pipette, the digested cortex was gently triturated. Cells were isolated by the density gradient method using OptiPrep (Sigma-Aldrich, D1556).
The cell suspension was diluted with Drop-seq buffer, and Drop-seq was performed using the Chromium™ Single Cell 3′ v2 Reagent Kit (Campbell et al. (2017). A molecular census of arcuate hypothalamus and median eminence cell types. Nat Neurosci 20, 484-496). Libraries were sequenced on the Illumina HiSeq X Ten, and Read 1 was 16 bp (10×™ Barcode and 10 bp UMI). Cells with either very low or too high mRNA content (to only include: 200<gene number <3,000) or a high fraction of mitochondrial encoded transcripts (>20%) were filtered out. Using 20,056 cells, raw sequence data were aligned to the mouse (mm10) genome, and analyses including PCA, t-SNE, and graph-based clustering were performed with the Cell Ranger Single-Cell software.
In addition to the microglial cells, the other brain cell types were also analyzed for the genes differentially expressed between the experimental groups.

CC(=O)Nc1cccc(-n2c(=O)n(C3CC3)c(=O)c3c(Nc4ccc(I)cc4F)n(C)c(=O)c(C)c32)c1 [trametinib, N-(3-{3-cyclopropyl-5-[(2-fluoro-4-iodophenyl)amino]-6,8-dimethyl-2,4,7-trioxo-3,4,6,7-tetrahydropyrido[4,3-d]pyrimidin-1(2H)-yl}phenyl)acetamide]
Log2(5XFAD-Tra0.1/5XFAD-Veh) Dbi (Acyl-CoA-binding protein) (M. Neu (mature neuron)): −1.719 | Log2(5XFAD-Tra0.1/5XFAD-Veh) Syt1 (Synaptotagmin-1) (M. Neu (mature neuron)): 1.127 | Fold change Acta2, 5XFAD-Tra 0.1 vs. 5XFAD-vehicle (microglia cluster): 1.513 | Fold change Cst7, 5XFAD-Tra 0.1 vs. 5XFAD-vehicle (microglia cluster): −1.1315 | Fold change Ptgds, 5XFAD-Tra 0.1 vs. 5XFAD-vehicle (microglia cluster): 1.704 | Fold change Rpl9-ps6, 5XFAD-Tra 0.1 vs. 5XFAD-vehicle (microglia cluster): 1.591 | Fold change Rpl10-ps3, 5XFAD-Tra 0.1 vs. 5XFAD-vehicle (microglia cluster): 1.632 | Fold change Spp1, 5XFAD-Tra 0.1 vs. 5XFAD-vehicle (microglia cluster): −1.5648 | Fold change Wfdc17, 5XFAD-Tra 0.1 vs. 5XFAD-vehicle (microglia cluster): −1.5194

Source: patent US20230190967A1, “Method and Composition for Evaluating Response to Neurodegenerative Disease Treatment Agent” (GENUV INC., priority 2020, published 2023)
